Earlier results on 1 substance are cited in patent publication US20170216421A1, “MANUFACTURING OF MULTI-DOSE INJECTION READY DENDRITIC CELL VACCINES, COMBINATION THERAPIES FOR BLOCKING HER2 AND HER3, AND ESTROGEN RECEPTOR POSITIVE HER2 BREAST RECEPTOR POSITIVE HER2 BREAST CANCER THERAPY” (THE TRUSTEES OF THE UNIVERSITY OF PENNSYLVANIA, priority 2015, published 2017).

This data set relates to HER2/ErbB2 positive breast cancer cells. The note with it: estimated; Burris et al., 2000; cited from earlier work.

With “Herceptin: targeted therapy for HER2/ErbB2 positive breast cancer cells”, the efficacy result was “less than 30%”.
